# Values quoted from earlier work in patent US20150001139A1, “REAL-TIME INTEGRITY MONITORING OF SEPARATION MEMBRANES” (THE REGENTS OF THE UNIVERSITY OF CALIFORNIA, priority 2013, published 2015).
# Conditions: cited from earlier work
row,Structure (SMILES),Solubility in Water
1,O=C([O-])c1ccccc1-c1c2ccc(=O)cc-2oc2cc([O-])ccc12.[Na+].[Na+] [Uranine],40 mg/mL
2,O=S(=O)([O-])c1cc(Nc2nc(Nc3ccccc3)nc(N(CCO)CCO)n2)ccc1/C=C/c1ccc(Nc2nc(Nc3ccccc3)nc(N(CCO)CCO)n2)cc1S(=O)(=O)[O-].[Na+].[Na+] [Fluorescent brightener 28],very soluble
